Values of other authors, collected in patent US20150111372A1 (priority 2013, published 2015).

What was measured:
[1] = HMIS rating
[2] = Table C

In the case of Arsenic Acid, the FLAMMABILITY [1] is given as 0, the HEALTH [1] is given as 4 · and the “PHYSICAL HAZARD” value [1] is given as 1. For the same substance, the “Solubility, Water” value [2] was 302 g/100 g.
